How the values were obtained:
[1] = test system: recombinant rat FRα protein; test: Recombinant FRα-binding by ELISA (rat); conditions: FIG. 4B
Description: Sandwich ELISA assays were performed using 96-well high-binding ELISA plates (Corning Inc., New York, NY, USA, Cat #3590). Plates were coated using 100 μL/well of recombinant human FRα protein (Sino Biological cat #11241-H08H); recombinant cynomolgus FRα protein (Sino Biological cat #90950-C08H); recombinant rat FRα protein (Sino Biological cat #81073-R08H) or recombinant mouse FRα protein (Sino Biological cat #50573-M08H) in PBS (pH 7.4) at 2 μg/mL and incubated overnight at 4° C. After 2 washes with PBS-T (PBS+0.05% Tween-20), the plates were blocked with 200 μL/well of incubation buffer (PBS-T+0.1% BSA) for 1 h at room temperature. The plates were washed 4 times with PBS-T, and 100 μL of a threefold dilution series of tested compound (antibody or antibody-drug conjugate) was added. Then, the plates were incubated for 2 h at room temperature in the dark. After 5 washes with PBS-T, plates were incubated 1 h at room temperature with 100 μL/well of a goat anti-human IgG (H+L) HRP conjugated antibody (Jackson Immunoresearch cat #109-035-088), previously diluted 1:250000 in incubation buffer. After 5 washes with PBS-T, TMB substrate solution (Thermo-Fisher cat #N301) was added. Peroxidase activity was stopped with 0.18M H2SO4 and absorbance was read at 450 nm (reference wavelength 650 nm) using a Thermo Scientific MultiSkan EX microplate reader. […]

Amino acid sequences for entries named in this document (tags omitted). Residues count along the entry.
UniProt P15328, 25-234: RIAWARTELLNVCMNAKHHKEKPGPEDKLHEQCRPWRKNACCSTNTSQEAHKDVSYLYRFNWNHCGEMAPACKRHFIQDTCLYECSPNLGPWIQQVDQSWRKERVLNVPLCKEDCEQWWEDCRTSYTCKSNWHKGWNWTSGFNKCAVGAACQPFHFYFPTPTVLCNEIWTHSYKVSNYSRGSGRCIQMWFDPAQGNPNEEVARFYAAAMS

[2] = Pulmonary inflammatory and toxicity evaluation in mice; set-up: species or system C57/BL6 mice; conditions: mouse, in vivo
Source text: Bleomycin has been widely used in rodents to model pulmonary fibrosis for the study of mechanisms involved in fibrogenesis and for evaluation of potential therapies. To assess ADC pulmonary toxicity, bleomycin-induced pulmonary fibrosis was induced in mice following known procedures as described by Walter and Kleeberger, Mouse Models of Bleomycin-Induced Pulmonary Fibrosis, 2008, Curr. Protoc. Pharmacol. 40:5.46.1-5.46.17. At day 0, 4 and 8, female C57/BL6 mice (Janvier Labs, Le Genest-Saint-Isle, France) were lightly anesthetized with isoflurane and intranasally administered with 20 μL of 1 mg/kg bleomycin PBS solution (Bleomycine Bellon, 15 mg for injection) or PBS (negative control mice). Non-bleomycin-conditioned mice were included as a negative control group. At day 11, mice (n=6 animals per group) were treated with tested conjugates (10 mg/kg i.p.) and were monitored for apparent signs of toxicity and weight loss during the duration of the experiment. […] At day 25 all mice were sacrificed, broncho-alveolar supernatant was obtained (by broncho-alveolar lavage) and lungs organs were harvested, weighted, and fixed in 0.1% (w/v) formaldehyde in PBS. After fixation, lungs were rinsed with a 0.02% (w/v) sodium azide in PBS solution and embedded in paraffin for histological staining. Slides were stained with anti-CD45 antibody (Abcam cat #ab10558, 1:500) to quantify level of leucocyte infiltration in the lungs. Secondary biotinylated goat anti-rabbit antibody (Vector Laboratories cat #BA-1000, 1:300) and Avidin-HRP (Vector Laboratories cat #A-2004) were used for detection. Histological experiments and imaging were outsourced at the Centre d'Imagerie Quantitative Lyon-Est (CiQLE) platform (Lyon, France). Random sections of IHC images (30% zoomed) were processed using native functionalities of the Fiji software (developed and maintained by the Laboratory for Optical and Computational Instrumentation of the University of Wisconsin-Madison, USA) to count CD45 positive cells within slides (1 slide per lung) and assess level of leucocyte infiltration. Monitoring of total counts of lymphocytes (CD3/CD4), eosinophils (CCR3/SiglecF), neutrophils (Ly6g/Ly6C) and macrophages (F4/80) in broncho-alveolar supernatants obtained from non-bleomycin-conditioned mice was done by flow cytometry. Inflammatory cytokines levels in broncho-alveolar supernatants obtained from non-bleomycin-conditioned mice were quantified by ELISA. IL-2, IL-4, IL-5, IL-6, IL-9, IL-10, IL-13 were quantified using Bio-Plex Pro™ Mouse Cytokine Th2 Panel (Bio-Rad cat #L60000UKVT), following manufacturer's instructions. TGF-β and IL-17 were quantified using Mouse TGF-beta 1 DuoSet and Mouse IL-17 DuoSet ELISA kits respectively (R&D systems cat #DY1679 and DY421), following manufacturer's instructions.
Statistical significance was evaluated using one-way ANOVA (Tukey method) using GraphPad Prism 9 software. p-values are represented as * (p<0.033), ** (p<0.002), *** (p<0.0002), and **** (p<0.0001) and “ns” stands for non-significant (p>0.123).

[3] = biological target: T1, extracellular human FRα expressed on cancerous cell lines (Homo sapiens, UniProt P15328); test: Cell-binding affinity by flow cytometry; conditions: APC-labelled antibody or ADC, flow cytometry (FIG. 6)
T1 construct: endogenous in cells; host or cells: human cancer cell lines (ATCC/DSMZ/ECACC); BT-474 as FRα-negative control
Description: (§1) Antibody or ADC binding to extracellular human FRα expressed on cancerous cell lines is assessed by flow cytometry. Tested antibody or ADC is conjugated to APC fluorophore using LYNX Rapid APC Antibody Conjugation Kit according to the manufacturer's protocol (Bio-Rad, Cat #LNK032APC). Into 500000 cells (suspended in 100 μL of PBS in flow cytometry plastic tubes) is added 5 μL of a 10 μg/mL solution of tested APC-labelled antibody or ADC. Cells are incubated 20 min in the dark, are washed with PBS 3 times by centrifugation and are re-suspended in 200 μL of PBS for analysis. Flow cytometry is performed using a BD Fortessa flow cytometer controlled by BD FACSDiva software (BD Biosciences) and data are analyzed using FlowJo software (BD Bioscience).
as §1, with “lines was” for “lines is”, “ADC was” for “ADC is”, “tubes) was” for “tubes) is”, “ADC. […]” for “ADC. Cells are incubated 20 min in the dark, are washed with PBS 3 times by centrifugation and are re-suspended in 200 μL of PBS for analysis.”, “cytometry was” for “cytometry is”, “data were” for “data are”

Row | Molecule | rat recombinant FRα binding (ELISA) [1] | inflammatory cytokine levels in broncho-alveolar supernatants compared to untreated group [2] | leucocyte inflammatory infiltration (IHC CD45) compared to untreated group [2] | lymphocyte counts in broncho-alveolar supernatants compared to untreated control group [2] | macrophages, neutrophils and eosinophils counts in broncho-alveolar supernatants compared to untreated control group [2] | leucocyte inflammatory infiltration (IHC CD45) compared to bleomycin-conditioned control group ([2]; ip, 10 mg/kg) | human FRα cell binding [3]
1 | F-LALA-VA-EXA (conjugate, N-methyl) heavy: EVQLVESGGGVVQPGRSLRLSCSASGFTFSGYGLSWVRQAPGKGLEWVAMISSGGSYTYYADSVKGRFAISRDNAKNTLFLQMDSLRPEDTGVYFCARHGDDPAWFAYWGQGTPVTVSSASTKGPSVFPLAPSSKSTSGGTAALGCLVKDYFPEPVTVSWNSGALTSGVHTFPAVLQSSGLYSLSSVVTVPSSSLGTQTYICNVNHKPSNTKVDKKV[gap - human IgG1 Fc with changes] light: DIQLTQSPSSLSASVGDRVTITCSVSSSISSNNLHWYQQKPGKAPKPWIYGTSNLASGVPSRFSGSGSGTDYTFTISSLQPEDIATYYCQQWSSYPYMYTFGQGTKVEIKRTVAAPSVFIFPPSDEQLKSGTASVVCLLNNFYPREAKVQWKVDNALQSGNSQESVTEQDSKDSTYSLSSTLTLSKADYEKHKVYACEVTHQGLSSPVTKSFNRGEC | does not bind | no significant increase in cytokine levels | no significant increase | significant increase in lymphocyte counts | no statistically significant increase | no significant increase | –
2 | M-SORAV (conjugate) heavy: QVQLVQSGAEVVKPGASVKISCKASGYTFTGYFMNWVKQSPGQSLEWIGRIHPYDGDTFYNQKFQGKATLTVDKSSNTAHMELLSLTSEDFAVYYCTRYDGSRAMDYWGQGTTVTVSSASTKGPSVFPLAPSSKSTSGGTAALGCLVKDYFPEPVTVSWNSGALTSGVHTFPAVLQSSGLYSLSSVVTVPSSSLGTQTYICNVNHKPSNTKVDKKV[gap - human IgG1 Fc] light: DIVLTQSPLSLAVSLGQPAIISCKASQSVSFAGTSLMHWYHQKPGQQPRLLIYRASNLEAGVPDRFSGSGSKTDFTLTISPVEAEDAATYYCQQSREYPYTFGGGTKLEIKRTVAAPSVFIFPPSDEQLKSGTASVVCLLNNFYPREAKVQWKVDNALQSGNSQESVTEQDSKDSTYSLSSTLTLSKADYEKHKVYACEVTHQGLSSPVTKSFNRGEC | – | – | – | – | – | – | significant loss of binding
